Laboratory results from patent US7592359B2, “Substituted azabicyclo hexane derivatives as muscarinic receptor antagonists” (Ranbaxy Laboratories Limited, priority 2003, dated 2009).

Test system: isolated rat bladder
Conditions: isolated rat bladder strips, carbachol concentration response curve

O=C(OCC12CC1CN(Cc1ccccc1)C2)C(O)(c1ccccc1)C1CCCCC1 (centres unmarked)
Functional Assay pKB: 7.74 ± 0.001

O=C(OCC12CC1CN(Cc1ccccc1)C2)C(O)(c1ccccc1)C1CCCC1 (centres unmarked)
Functional Assay pKB: 7.51 ± 0.33
